A selection: hits, their analogues and other compounds. The true share with any hit is near 2.1%.
Nrf2 inh = inhibitors of Nrf2 signaling. 360,000 compounds, 2.1% hits. AID 504444. Potency, µM (titrated, usually from 46 µM), for inactives: at the highest dose activity change, negative = inhibition, usual class: inhibitors. A549 ARE-Fluc reporter, luciferase luminescence, 18-24 h; also: potency is read from the fitted curve at half-maximal effect; % is scaled to controls: 0 for no effect and ±100 for the full control effect; nearly all actives have a fitted effect of over 60% in size
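Cells were seeded and rested 2 h, then exposed to compounds for 18-24 h. CellTiter-Fluor was read first as a viability measure. BugLite was added 15 min before the final luminescent read of ARE-luciferase activity in A549 cells.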
Nrf2 ARE act = Nrf2 pathway activation. AREc32 ARE-luciferase reporter (MCF7-derived line), luminescence, 24 h. Potency, µM (titrated, usually from 46.1 µM), without a hit: top-dose activation, most hits filed as activators. 410,000 compounds, 0.31% hits; also: potency is read from the fitted curve at half-maximal effect; % of control where 0% means no effect; nearly all actives have a fitted effect of over 65% in size
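Cells of the AREc32 ARE-luciferase line are plated in OPTI-MEM containing 5% FBS and left overnight at 37 deg C. Compounds are pinned in, incubation continues 24 hr, and firefly luciferase signal is then measured.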
miR-21 reporter = raises the signal of a miR-21 reporter | Potency, µM (doses to about 38.3 µM), for inactives: top-dose reporter change, positive = more light | HeLa miR-21 FLuc reporter, luciferase, 48 h | AID 2288 | 340,000 tested, under 10 active; active = well fitted rising curve with a large enough effect; inconclusive = small, poorly fitted or top-dose-only effect; inactive = no such curve, though single readings can be large or run the other way;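 also: % of control where 0% means no effect; miR-21 action dims this reporter so a rising signal means less miR-21 action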
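Compounds were titrated across several concentrations (up to approximately 40 uM) and incubated 48 hours with HeLa miR-21-FLuc reporter cells (miR-21 target sequence downstream of FLuc, endogenous miR-21). Readout was firefly luciferase luminescence after lytic detection reagent.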
Glioma ERSR ind = induces the endoplasmic reticulum stress response in human glioma cells; U87-MG GRP78 promoter luciferase reporter, 16 h; Potency, µM, without a hit: at the top dose activation, most hits filed as activators; 420,000 compounds, 0.02% hits; AID 602332; also: potency is read from the fitted curve at half-maximal effect; series mostly up to about 76 µM; % of control where 0% means no effect; nearly all actives have a fitted effect of over 35% in size
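Stably transfected U87-MG glioma cells carrying a GRP78-based luciferase sensor; 16 h compound incubation. Luminescence end-point read 10 min after Bright-Glo addition at room temperature.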
TSG101-PTAP inh = blocks PTAP/TSG101 interaction to inhibit HIV-1 budding; Q99816; Fluorescence polarization, FITC-PTAP peptide / Tsg101 binding; Potency, µM (series often up to 115 µM), for the others: at the highest dose activity change, negative = inhibition, usual class: inhibitors; 340,000 tested, under 10 active; active = well fitted inhibition curve with a large enough effect in the main read-out, with a control signal flat, not every such curve was filed as active; inconclusive = small, poorly fitted or top-dose-only effect, or effect the other way, or a change in a side signal; inactive = no such curve, though single readings can be large or run the other way; also: potency is read from the fitted curve at half-maximal effect; % of control where 0% means no effect
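FP read-out: FITC-PTAP peptide, 50 nM final, binding Tsg101 binding domain, 10 uM final; 20 min, r.t.; 10 mM HEPES pH 7.5, 0.15 M NaCl, 0.01% Tween 20, 3 mM EDTA, 0.1 mM TCEP.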
A549 viability = kills or reduces viability of A549 cells in Nrf2 counter-screen; A549 ARE-Fluc cells, CellTiter-Fluor viability, 18-24 h; Potency, µM (series often up to 46 µM), inactives show at the top dose activity change, negative = cytotoxicity, hits mostly inhibitors; 390,000 compounds, 0.16% hits; AID 504648; also: potency is read from the fitted curve at half-maximal effect; % is scaled to controls: 0 for no effect and ±100 for the full control effect
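A549 ARE_Fluc cells in 5% FBS OPTI-MEM were exposed to compounds in concentration-response for 18-24 h at 37 deg C. Viability was read by CellTiter-Fluor fluorescence (Ex 405/Em 525) after 30 min, before the luciferase read.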
Numbers without * were called inactive; ? = inconclusive; . = not tested or not shown; ! = not active in a repeat. Unless noted, calls follow the shape of the dose curve; as a rule, active = well fitted curve in the direction sought with a large enough effect; inconclusive = small, poorly fitted or top-dose-only effect, or another doubt; inactive = no such curve, though single readings can be large; an effect the other way counts as inactive or inconclusive.

(1) CCN(Cc1ccccc1)c1ccc(/C=C/c2nccc3ccccc23)cc1
(2) Cc1cccc(NS(=O)(=O)c2ccc3c(c2)[C@H]2C=CC[C@H]2[C@@H](c2ccc(F)cc2)N3)c1
(3) O=C(CSc1nc2ccc([N+](=O)[O-])cc2[nH]1)NC1CCCCC1
(4) O=C(CSc1nc2ccc([N+](=O)[O-])cc2[nH]1)NC1CCCCCC1
(5) NC(=O)C(c1ccc(Cl)cc1)c1ccc(Sc2ccc(Cl)cc2)nn1 (stereo not given)
(6) Cc1ccc(S(=O)(=O)N/N=C/c2c[nH]c3ccccc23)cc1
(7) Cc1ccc(S(=O)(=O)/C(C#N)=C/c2c[nH]c3ccccc23)cc1
(8) O=C(N/N=C/C=C/c1ccco1)c1ccccc1Cl
compound no.	1	2	3	4	5	6	7	8
Nrf2 inh	.	18µM*	.	13µM*	16µM*	?	16µM*	14%
Nrf2 ARE act	.	1%	0%	2%	3%	10%	3%	11µM*
miR-21 reporter	.	7%	16%	27%	18%	5%	2%	-2%
Glioma ERSR ind	0%	-4%	-2%	-4%	2%	-3%	2%	6%
TSG101-PTAP inh	.	.	-3%	-1%	-5%	-4%	-5%	-3%
A549 viability	.	-15%	-6%	?	-12%	1%	-23%	3%

Next section; it opens with the two that closed the last part.
(7) Cc1ccc(S(=O)(=O)/C(C#N)=C/c2c[nH]c3ccccc23)cc1
(8) O=C(N/N=C/C=C/c1ccco1)c1ccccc1Cl
(9) CC(/C=C/c1ccco1)=N/NC(=O)c1ccccc1Cl
(10) O=C(N/N=C/C=C/c1ccco1)c1cccc([N+](=O)[O-])c1
(11) O=C(/C=C/c1ccco1)c1cccc([N+](=O)[O-])c1
(12) SCc1nc2ccccc2[nH]1
(13) O=c1c(O)c(-c2ccc(O)c(O)c2)oc2cc(O)ccc12
(14) CNc1cccc(S(=O)(=O)N2CCN(S(=O)(=O)c3ccc4c(c3)OCCO4)CC2)c1
(15) COc1cccc(C2c3c(ncn(-c4cccc(OC)c4)c3=N)Oc3ccc4ccccc4c32)c1 (stereo not given)
(16) COc1cccc(C2c3c(ncn(-c4ccccc4OC)c3=N)Oc3ccc4ccccc4c32)c1 (stereo not given)
compound no.	7	8	9	10	11	12	13	14	15	16
Nrf2 inh	16µM*	14%	?	12%	12%	.	12µM*	-2%	-2%	-26%
Nrf2 ARE act	3%	11µM*	?	2.2µM*	?	.	4%	.	.	.
miR-21 reporter	2%	-2%	-34%	1%	.	.	.	.	.	.
Glioma ERSR ind	2%	6%	11%	0%	-2%	0%	0%	.	.	.
TSG101-PTAP inh	-5%	-3%	-9%	-2%	-2%	.	-5%	.	.	.
A549 viability	-23%	3%	-1%	8%	0%	.	-3%	6%	-12%	?

(17) N=c1c2c(ncn1-c1ccccc1)Oc1ccc3ccccc3c1C2c1ccc2c(c1)OCO2 (stereo not given)
(18) COc1cccc(C2c3c(ncn(-c4ccccc4)c3=N)Oc3ccc4ccccc4c32)c1 (stereo not given)
(19) COc1ccccc1C1c2c(ncn(-c3ccccc3)c2=N)Oc2ccc3ccccc3c21 (stereo not given)
(20) Cc1cc(C)cc(-n2ccn(CC(=O)c3ccc(F)cc3)c(=O)c2=O)c1
(21) Cc1cc(C)cc(-n2ccn(Cc3ccc(F)cc3)c(=O)c2=O)c1
(22) CCC1CN(CC(=O)NC(c2ccccn2)C(F)(F)F)Cc2cc(OC)ccc2O1 (stereo not given)
(23) CC(NC(=O)c1ccco1)c1nnc2n1CCN(Cc1ccc(N3CCCC3)cc1)CC2 (stereo not given)
(24) Cc1ccc(Cn2ccsc2=NC(=O)COC(=O)c2ccc(NC(=O)CC#N)cc2)cc1
compound no.	17	18	19	20	21	22	23	24
Nrf2 inh	21µM*	15µM*!	23µM*	?	23µM*	.	.	23µM*
Nrf2 ARE act	.	.	.	0%	1%	.	.	1%
miR-21 reporter	.	.	.	-2%	?	.	.	.
Glioma ERSR ind	.	.	.	-2%	-4%	0%	-6%	-5%
TSG101-PTAP inh	.	.	.	.	.	.	.	0%
A549 viability	15µM*	15µM*!	21µM*	2%	0%	.	.	-14%

(25) Cc1ccc(Cn2ccsc2=NC(=O)CCl)cc1
(26) COCCNc1nc2c(c(=O)n(C)c(=O)n2C)n1Cc1c(F)cccc1Cl
(27) Cc1ccc(Cn2c(NCCc3ccccc3)nc3c2c(=O)n(C)c(=O)n3C)cc1
(28) CCCNc1nc2c(c(=O)n(C)c(=O)n2C)n1Cc1ccc(F)cc1
(29) COCCCNc1nc2c(c(=O)n(C)c(=O)n2C)n1Cc1ccccc1
(30) Cn1c(=O)c2c(nc(CN3CCCCC3)n2Cc2c(F)cccc2Cl)n(C)c1=O
(31) CCNc1nc2c(c(=O)n(C)c(=O)n2C)n1Cc1ccc(Cl)cc1
(32) Cc1cccc2c(=O)[nH]c3c(-c4nc(-c5ccc(Cl)cc5)cs4)c(O)cn3c12
compound no.	25	26	27	28	29	30	31	32
Nrf2 inh	10%	18µM*	15µM*	15µM*	?	8%	9.2µM*	.
Nrf2 ARE act	22%	-1%	-1%	0%	-1%	-1%	0%	.
miR-21 reporter	?	5%	-7%	15%	6%	1%	20%	.
Glioma ERSR ind	-15%	-3%	0%	-3%	-6%	-3%	-3%	-3%
TSG101-PTAP inh	-8%	.	-9%	-3%	.	1%	3%	.
A549 viability	-4%	-7%	-5%	-16%	8%	3%	-5%	.

Single records, from the list above:
O=C(N/N=C/C=C/c1ccco1)c1cccc([N+](=O)[O-])c1 is listed with Nrf2 inh: 12%; Nrf2 ARE act: 2.2µM*; miR-21 reporter: 1%; Glioma ERSR ind: 0%; TSG101-PTAP inh: -2%; A549 viability: 8%
CCCNc1nc2c(c(=O)n(C)c(=O)n2C)n1Cc1ccc(F)cc1 is listed with Nrf2 inh: 15µM*; Nrf2 ARE act: 0%; miR-21 reporter: 15%; Glioma ERSR ind: -3%; TSG101-PTAP inh: -3%; A549 viability: -16%

Other results:
(33) CC(C)(C)n1ncc2c(=O)n(Cc3ccc(SC(F)(F)F)cc3)cnc21
(34) Cn1c(=O)c2c(nc(N/N=C/c3ccc(OC(=O)c4ccco4)cc3)n2Cc2ccccc2)n(C)c1=O
(35) Cn1c(=O)c2c(nc(NCc3ccco3)n2CCc2ccccc2)n(C)c1=O
(36) CCn1c(NCc2ccco2)nc2c1c(=O)n(C)c(=O)n2C
(37) COc1ccccc1C1CN(CCNC(=O)c2ccc3c(c2)OCCO3)Cc2ccccc2O1 (stereo not given)
(38) CS(=O)(=O)c1nc(S(=O)(=O)c2ccc(Cl)cc2)c(N2CCC(O)CC2)s1
(39) Cc1ccc(S(=O)(=O)c2nc(S(C)(=O)=O)sc2N2CCC(O)CC2)cc1
(40) CCN(CC)c1ccc(NC2=C(Cl)C(=O)c3ccccc3C2=O)cc1
compound no.	33	34	35	36	37	38	39	40
Nrf2 inh	.	16µM*	21µM*	8%	.	?	-4%	?
Nrf2 ARE act	.	4%	8%	5%	.	?	8.9µM*	?
miR-21 reporter	.	1%	14%	-15%	.	15%	8%	-50%
Glioma ERSR ind	-3%	-2%	0%	-3%	-3%	-5%	-3%	-13%
TSG101-PTAP inh	.	0%	-4%	-5%	.	3%	6%	-2%
A549 viability	.	-20%	-15%	-3%	.	1%	0%	21µM*

(41) C=CCn1cc(C(=O)NCc2ccco2)c(=O)c2cc(S(=O)(=O)N3CCCCCC3)ccc21
(42) COc1ccc(COC(=O)c2cc(S(=O)(=O)N3CCCCC3)ccc2N2CCOCC2)cc1
(43) Cc1ccc(OCCOC(=O)c2cc(S(=O)(=O)N3CCCCC3)ccc2N2CCOCC2)cc1
(44) COc1cccc(CNC(=O)c2c(OC)cc(=O)n3c2CCN(C(=O)c2csc(C)n2)CC3)c1
(45) NC(=S)n1[nH]c(-c2ccc([N+](=O)[O-])cc2)c(N=Nc2cccc(Cl)c2)c1=O
compound no.	41	42	43	44	45
Nrf2 inh	12µM*	?	12µM*	.	18µM*
Nrf2 ARE act	0%	0%	2%	.	1%
miR-21 reporter	2%	.	.	.	4%
Glioma ERSR ind	0%	-7%	-4%	0%	-6%
TSG101-PTAP inh	-18%	0%	-1%	.	-11%
A549 viability	-19%	-1%	-10%	.	?

Screening data: PubChem, National Center for Advancing Translational Sciences (NCATS)
